Experimental data as given in patent US20170252319A1, “Flavonoid-Poly(ethylene glycol) Complex Comprising Flavonoid Compounds and Poly(ethylene glycol) and Preparation Method Thereof” (Korea Advanced Institute of Science and Technology, priority 2016, published 2017).

Test: Confirmation of water-solubility (appearance of solution, photograph)
Format: physicochemical
Conditions: dissolved in saline or biological buffer at high concentration; complexes at all flavonoid:PEG weight ratios tested (catechin 1:1-10, morin 1:10-500, quercetin 1:10-1000)
Procedure: To investigate the water-solubility of the dried catechin-PEG complex prepared in step 1 above, the dried catechin-PEG complex powder was dissolved in an aqueous solution solvent such as saline or biological buffer at a high concentration, followed by confirmation of the solubility.
To investigate the water-solubility of the dried morin-PEG complex prepared in step 1 above, the dried morin-PEG complex powder was dissolved in an aqueous solution solvent such as saline or biological buffer at a high concentration, followed by confirmation of the solubility.
To investigate the water-solubility of the dried quercetin-PEG complex prepared in step 1 above, the dried quercetin-PEG complex powder was dissolved in an aqueous solution solvent such as saline or biological buffer at a high concentration, followed by confirmation of the solubility.

Catechin hydrate [non-treated catechin]
solubility in water: very low
